Measurements published in article PMC10945505.

Biological target: FZD7 CRD (Homo sapiens)
Assay: BLI

Row | Kd [nM] | Substance
1 | 63.7 | F-FGF21ΔC (from UniProt Q9NSA1 29-189)
2 | 53.6 | F-FGF21ΔNΔC (from UniProt Q9NSA1 46-189)
